Earlier results, collected in paper PMC8131289, “Direct Comparison of the Prediction of the Unbound Brain-to-Plasma Partitioning Utilizing Machine Learning Approach and Mechanistic Neuropharmacokinetic Model” (The AAPS Journal, 2021).

Protein sequences, listed by entry. Tags and fused reporters are not part of them. Lines headed by an entry give the natural chain unless they say otherwise; changes in a name come on top.
UniProt P08183, whole entry: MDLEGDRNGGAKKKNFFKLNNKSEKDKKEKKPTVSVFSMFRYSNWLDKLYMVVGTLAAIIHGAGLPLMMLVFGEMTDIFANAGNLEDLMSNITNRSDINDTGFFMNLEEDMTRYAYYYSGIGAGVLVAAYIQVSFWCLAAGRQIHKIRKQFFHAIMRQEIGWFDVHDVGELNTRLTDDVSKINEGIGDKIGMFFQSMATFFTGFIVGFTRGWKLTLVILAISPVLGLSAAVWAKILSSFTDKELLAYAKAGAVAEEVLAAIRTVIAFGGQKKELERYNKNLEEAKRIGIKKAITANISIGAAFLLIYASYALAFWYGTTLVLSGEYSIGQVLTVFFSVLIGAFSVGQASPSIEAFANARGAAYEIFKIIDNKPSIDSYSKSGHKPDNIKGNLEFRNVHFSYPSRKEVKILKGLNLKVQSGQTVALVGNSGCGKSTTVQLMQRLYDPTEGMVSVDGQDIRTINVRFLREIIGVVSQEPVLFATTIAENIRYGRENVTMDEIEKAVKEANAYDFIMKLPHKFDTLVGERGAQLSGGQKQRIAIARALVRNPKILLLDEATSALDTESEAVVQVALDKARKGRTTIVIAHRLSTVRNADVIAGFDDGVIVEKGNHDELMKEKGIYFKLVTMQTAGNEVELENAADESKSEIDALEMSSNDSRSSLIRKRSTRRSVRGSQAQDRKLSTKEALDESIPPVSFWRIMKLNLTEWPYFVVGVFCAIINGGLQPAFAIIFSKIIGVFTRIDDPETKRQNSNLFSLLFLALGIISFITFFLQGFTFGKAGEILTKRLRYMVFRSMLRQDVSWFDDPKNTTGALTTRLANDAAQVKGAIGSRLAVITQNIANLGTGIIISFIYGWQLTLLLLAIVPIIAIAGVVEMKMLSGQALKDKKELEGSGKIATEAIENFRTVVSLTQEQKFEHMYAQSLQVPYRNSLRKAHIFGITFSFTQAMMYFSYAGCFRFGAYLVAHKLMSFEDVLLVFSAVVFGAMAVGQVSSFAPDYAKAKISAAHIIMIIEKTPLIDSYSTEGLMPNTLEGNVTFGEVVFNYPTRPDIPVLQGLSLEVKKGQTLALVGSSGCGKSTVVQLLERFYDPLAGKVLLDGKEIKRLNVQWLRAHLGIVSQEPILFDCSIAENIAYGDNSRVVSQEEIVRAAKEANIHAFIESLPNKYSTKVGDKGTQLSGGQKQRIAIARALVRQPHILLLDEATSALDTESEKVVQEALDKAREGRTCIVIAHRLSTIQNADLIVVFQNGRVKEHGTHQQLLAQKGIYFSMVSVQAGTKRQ
UniProt Q9UNQ0: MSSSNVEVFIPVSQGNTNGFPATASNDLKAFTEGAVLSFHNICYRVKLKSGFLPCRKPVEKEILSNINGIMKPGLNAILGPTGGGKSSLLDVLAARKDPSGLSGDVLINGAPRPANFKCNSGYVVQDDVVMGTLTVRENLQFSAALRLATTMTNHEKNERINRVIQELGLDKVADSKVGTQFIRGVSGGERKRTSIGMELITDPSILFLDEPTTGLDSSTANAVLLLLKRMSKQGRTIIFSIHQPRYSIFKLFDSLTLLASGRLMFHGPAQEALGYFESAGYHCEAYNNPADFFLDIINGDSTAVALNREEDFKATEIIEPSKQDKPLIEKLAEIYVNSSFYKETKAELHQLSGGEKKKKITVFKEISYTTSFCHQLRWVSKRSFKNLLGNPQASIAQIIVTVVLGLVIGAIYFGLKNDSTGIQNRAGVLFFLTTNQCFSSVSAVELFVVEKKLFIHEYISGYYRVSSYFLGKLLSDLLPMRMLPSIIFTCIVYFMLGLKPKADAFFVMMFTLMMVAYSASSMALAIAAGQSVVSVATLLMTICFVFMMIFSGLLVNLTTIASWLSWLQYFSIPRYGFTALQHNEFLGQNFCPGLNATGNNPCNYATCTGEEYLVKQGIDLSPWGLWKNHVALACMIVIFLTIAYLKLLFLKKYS

Experiments:
[1] = target: MDR1 (Homo sapiens, UniProt P08183); settings: MDCK-MDR1 cells, external dataset; ref (17)
[2] = target: BCRP (Homo sapiens, UniProt Q9UNQ0); settings: MDCK-BCRP cells, external dataset; ref (17)

| SMILES | Efflux ratio MDR1 [1] | Efflux ratio BCRP [2] |
| --- | --- | --- |
| CC(C)NCC(O)COc1cccc2ccccc12 (stereo not shown) [Propranolol] | 0.93 | 0.95 |
| O=C1NC(=O)C(c2ccccc2)(c2ccccc2)N1 [Phenytoin] | – | 0.93 |
| O=c1c(-c2ccc(O)cc2)coc2cc(O)cc(O)c12 [Genistein] | 0.19 | – |
